Legend:
integrin α4 β1 = integrin α4 β1 (Homo sapiens, UniProt P05556+P13612); test: VCAM antagonist activity (VCAM-1/α4β1 binding assay), Jurkat cells binding to VCAM-1; details: read-out: Antagonistic Activity IC50 α 4 β 1/VCAM; Jurkat cells binding to recombinant human VCAM-1; 50% binding inhibition
Protocol: VCAM Antagonist Activity (VCAM-1/α4β1 Binding Assay)
The capacity of a test substance antagonistic to the binding of cell strain Jurkat (ATCC TIB-152) of human T cells, known to express integrin α4 β1, to VCAM-1 was determined. 100 μl/well of a solution (500 ng/ml) of recombinant human VCAM-1 (R & D systems) solution diluted with buffer A (0.1 M NaHCO3, pH 9.6) was added to a micro titer plate having 96 wells (Nunc Maxisorp). After the incubation at 4° C. overnight, unbound VCAM-1 was removed by washing once with PBS. After completion of the washing, a buffer (buffer B) obtained by diluting Block Ace (Dainippon Pharmaceutical Co., Ltd.) with PBS to ¼ concentration was added in an amount of 150 μl/well. After the incubation at room temperature for 1 hour, buffer B was removed and the plate was washed with PBS once.
Jurkat cells were washed with Dulbecco modified Eagle medium (SIGMA, hereinafter referred to as “DMEM”) twice and then incubated in DMEM containing 10 μg/ml of Calcein-AM (Wako Pure Chemical Industries, Ltd.) at 37° C. in dark place for 30 minutes to label with fluorescence. The cells were again suspended in a binding buffer (20 mM HEPES, DMEM containing 0.1% BSA).
(§1) 50 μl of a test substance of various concentrations obtained by the dilution with the binding buffer was added to the plate. Immediately thereafter, 50 μl (final volume: 100 μl well) of the fluorescent Jurkat cells (4×10^6 cells/ml) were added thereto, and they were incubated at room temperature for 30 minutes. After the shaking on a plate shaker (IKA MTS-4) at 800 rpm for 30 seconds, the solution was immediately removed to remove the unbound cells. The fluorescence quantity of the bound cells remaining in the wells was determined with a fluorescent plate reader (Wallac 1420 ARVO multi-label counter) (filter excitation wave length: 485 nm, emission wave length: 535 nm). The fluorescent strength thus obtained is proportional to the number of Jurkat cells bound to VCAM-1 and remaining on the plate. The binding rate of each test material in various concentrations was determined while the fluorescent strength of the test material-free well was determined to be 100%. The concentration IC50 for the 50% binding inhibition was calculated.

Protein sequences, listed by entry. Tags and fused reporters are not part of them. Residues count along the entry.
UniProt P05556, 21-798 limits assumed: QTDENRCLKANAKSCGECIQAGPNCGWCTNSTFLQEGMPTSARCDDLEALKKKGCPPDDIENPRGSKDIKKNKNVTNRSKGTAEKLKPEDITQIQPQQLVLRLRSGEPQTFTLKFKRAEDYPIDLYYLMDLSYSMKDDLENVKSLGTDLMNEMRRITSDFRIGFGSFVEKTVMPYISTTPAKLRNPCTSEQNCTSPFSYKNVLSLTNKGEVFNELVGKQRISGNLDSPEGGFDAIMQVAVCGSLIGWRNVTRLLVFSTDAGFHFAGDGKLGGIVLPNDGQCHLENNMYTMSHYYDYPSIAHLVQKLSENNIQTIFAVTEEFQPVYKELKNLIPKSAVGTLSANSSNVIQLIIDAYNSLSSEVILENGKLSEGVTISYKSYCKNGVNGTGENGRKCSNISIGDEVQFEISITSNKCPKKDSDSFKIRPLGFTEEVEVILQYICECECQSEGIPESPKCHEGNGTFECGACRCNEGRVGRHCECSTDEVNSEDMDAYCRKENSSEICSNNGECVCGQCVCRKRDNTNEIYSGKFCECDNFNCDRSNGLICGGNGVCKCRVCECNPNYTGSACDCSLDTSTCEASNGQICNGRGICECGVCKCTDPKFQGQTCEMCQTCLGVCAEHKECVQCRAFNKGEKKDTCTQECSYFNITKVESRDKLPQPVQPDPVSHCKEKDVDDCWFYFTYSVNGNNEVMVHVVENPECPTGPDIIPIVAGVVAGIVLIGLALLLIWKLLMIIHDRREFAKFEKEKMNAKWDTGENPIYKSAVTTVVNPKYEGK
UniProt P13612, 34-1032 limits assumed: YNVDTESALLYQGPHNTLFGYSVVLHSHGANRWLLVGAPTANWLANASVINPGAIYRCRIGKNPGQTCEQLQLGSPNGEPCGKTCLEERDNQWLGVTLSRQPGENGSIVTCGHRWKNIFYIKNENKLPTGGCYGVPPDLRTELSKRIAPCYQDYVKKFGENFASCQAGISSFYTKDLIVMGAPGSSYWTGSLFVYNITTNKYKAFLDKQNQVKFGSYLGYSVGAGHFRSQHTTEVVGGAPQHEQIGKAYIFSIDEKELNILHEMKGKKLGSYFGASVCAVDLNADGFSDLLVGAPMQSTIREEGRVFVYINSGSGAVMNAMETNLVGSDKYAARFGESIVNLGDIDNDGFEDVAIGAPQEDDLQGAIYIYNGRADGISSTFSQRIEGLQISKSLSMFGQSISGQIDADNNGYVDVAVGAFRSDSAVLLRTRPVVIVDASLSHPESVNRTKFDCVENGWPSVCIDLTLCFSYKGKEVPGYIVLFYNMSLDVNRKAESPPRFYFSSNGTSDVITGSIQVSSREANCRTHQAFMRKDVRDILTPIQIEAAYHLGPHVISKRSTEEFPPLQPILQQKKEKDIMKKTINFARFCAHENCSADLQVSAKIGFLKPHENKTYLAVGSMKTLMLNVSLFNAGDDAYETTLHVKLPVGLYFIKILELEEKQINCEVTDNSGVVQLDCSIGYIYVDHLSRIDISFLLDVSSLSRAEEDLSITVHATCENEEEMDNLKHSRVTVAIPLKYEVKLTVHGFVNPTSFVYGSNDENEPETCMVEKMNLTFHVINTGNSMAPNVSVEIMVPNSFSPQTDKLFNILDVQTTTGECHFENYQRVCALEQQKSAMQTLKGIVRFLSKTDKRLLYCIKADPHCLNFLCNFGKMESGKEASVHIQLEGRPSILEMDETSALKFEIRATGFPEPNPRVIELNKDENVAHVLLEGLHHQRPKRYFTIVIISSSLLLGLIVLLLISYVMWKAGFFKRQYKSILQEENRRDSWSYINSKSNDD
UniProt P26010, 20-798 limits assumed: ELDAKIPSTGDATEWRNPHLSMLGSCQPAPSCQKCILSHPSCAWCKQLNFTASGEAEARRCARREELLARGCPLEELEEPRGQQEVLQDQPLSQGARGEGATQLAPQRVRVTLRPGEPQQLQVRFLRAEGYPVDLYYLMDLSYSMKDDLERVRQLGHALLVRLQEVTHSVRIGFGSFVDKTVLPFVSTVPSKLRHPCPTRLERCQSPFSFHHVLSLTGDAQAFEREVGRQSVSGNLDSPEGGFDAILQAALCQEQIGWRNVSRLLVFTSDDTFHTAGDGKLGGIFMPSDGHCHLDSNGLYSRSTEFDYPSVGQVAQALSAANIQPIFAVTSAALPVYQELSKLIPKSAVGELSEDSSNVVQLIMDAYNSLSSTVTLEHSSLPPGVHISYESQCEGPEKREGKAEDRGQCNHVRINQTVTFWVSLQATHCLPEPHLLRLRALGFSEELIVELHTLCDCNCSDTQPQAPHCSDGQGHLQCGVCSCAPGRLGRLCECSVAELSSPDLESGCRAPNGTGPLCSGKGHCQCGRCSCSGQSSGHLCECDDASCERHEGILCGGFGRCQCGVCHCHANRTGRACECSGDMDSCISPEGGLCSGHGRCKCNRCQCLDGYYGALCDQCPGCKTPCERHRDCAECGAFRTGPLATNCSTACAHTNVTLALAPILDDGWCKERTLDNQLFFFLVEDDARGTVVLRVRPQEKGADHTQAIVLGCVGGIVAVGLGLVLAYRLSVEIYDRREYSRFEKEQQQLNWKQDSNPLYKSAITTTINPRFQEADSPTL

integrin α4β7 = integrin α4β7 (Homo sapiens, UniProt P13612+P26010); test: VCAM antagonistic activity (VCAM-1/α4β7 binding assay), RPMI-8866 cells binding to VCAM-1; details: read-out: Antagonistic Activity IC50 α 4 β 7/VCAM; RPMI-8866 cells binding to recombinant human VCAM-1, binding buffer with 4 mM MnCl2; 50% binding inhibition
Protocol: VCAM Antagonistic Activity (VCAM-1/α4β7 Binding Assay)
The capacity of a test substance antagonistic to the binding of lymphoma cell strain RPMI-8866 of human B cells, known to express integrin α4β7, to VCAM-1 was determined. 100 μl/well of a solution (500 ng/ml) of recombinant human VCAM-1 (R & D systems) solution diluted with buffer A (0.1 M NaHCO3, pH 9.6) was added to a micro titer plate having 96 wells (Nunc Maxisorp). After the incubation at 4° C. overnight, unbound VCAM-1 was removed by washing once with PBS. After completion of the washing, a buffer (buffer B) obtained by diluting Block Ace (Dainippon Pharmaceutical Co., Ltd.) with PBS to ¼ concentration was added in an amount of 150 μl/well. After the incubation at room temperature for 1 hour, buffer B was removed and the plate was washed with PBS once.
RPMI-8866 cells were incubated in Dulbecco modified Eagle medium containing 10 μg/ml of Calcein-AM (Wako Pure Chemical Industries, Ltd.) (SIGMA, hereinafter referred to as “DMEM”) at 37° C. for 30 minutes to label with fluorescence. The cells were again suspended in a binding buffer (20 mM HEPES, DMEM containing 0.1% BSA) containing 4 mM of MnCl2.
as §1, with “μl/well)” for “μl well)”, “RPMI-8866” for “Jurkat”

Row | Structure (SMILES) | IC50 (integrin α4 β1) [nM] | IC50 (integrin α4β7) [nM]
1 | COC(=O)C1Cc2ccccc2C(=O)N1c1ccc(C[C@H](NC(=O)c2c(Cl)cccc2Cl)C(=O)O)cc1 (stereo partly shown) | 1100 | 84
2 | O=C(N[C@@H](Cc1ccc(N2C(=O)c3cccc([N+](=O)[O-])c3C2=O)cc1)C(=O)O)c1c(Cl)cccc1Cl | 330 | 8.5
3 | CC(C)COc1cccc2c1C(=O)N(c1ccc(C[C@H](NC(=O)c3c(Cl)cccc3Cl)C(=O)O)cc1)C2=O | 1200 | 96
4 | O=C(N[C@@H](Cc1ccc(N2C(=O)[C@H]3CCCC[C@H]3C2=O)cc1)C(=O)O)c1c(Cl)cccc1Cl | 630 | 19
5 | N#CC1Cc2ccccc2C(=O)N1c1ccc(C[C@H](NC(=O)c2c(Cl)cccc2Cl)C(=O)O)cc1 (stereo partly shown) | 770 | 84
6 | Cc1cccc2c1C(=O)N(c1ccc(C[C@H](NC(=O)c3c(Cl)cccc3Cl)C(=O)O)cc1)C2=O | 500 | 20
7 | O=C(N[C@@H](Cc1ccc(N2C(=O)c3ccc(F)cc3C2=O)cc1)C(=O)O)c1c(Cl)cccc1Cl | 600 | 23

Now those with a lower IC50 (integrin α4 β1), led by results:

Row | IC50 (integrin α4 β1) [nM] | IC50 (integrin α4β7) [nM] | Structure (SMILES)
8 | 270 | 18 | O=C(N[C@@H](Cc1ccc(N2C(=O)c3ccc(Br)cc3C2=O)cc1)C(=O)O)c1c(Cl)cccc1Cl
9 | 150 | 4.5 | COc1cccc2c1C(=O)N(c1ccc(C[C@H](NC(=O)c3c(Cl)cccc3Cl)C(=O)O)cc1)C2=O
10 | 140 | 8 | O=C(N[C@@H](Cc1ccc(N2C(=O)c3cccc(F)c3C2=O)cc1)C(=O)O)c1c(Cl)cccc1Cl
11 | 33 | 2.6 | Nc1ccc2c(c1)C(=O)N(c1ccc(C[C@H](NC(=O)c3c(Cl)cccc3Cl)C(=O)O)cc1)C2=O

Source: patent publication US7452905B2, “Phenylalanine derivatives” (Ajinomoto Co., Inc., priority 2000, dated 2008)
